{
  "sequences": {"note": "The chains behind the UniProt entries cited, without tags or fusion partners.", "UniProt P32300, whole entry": "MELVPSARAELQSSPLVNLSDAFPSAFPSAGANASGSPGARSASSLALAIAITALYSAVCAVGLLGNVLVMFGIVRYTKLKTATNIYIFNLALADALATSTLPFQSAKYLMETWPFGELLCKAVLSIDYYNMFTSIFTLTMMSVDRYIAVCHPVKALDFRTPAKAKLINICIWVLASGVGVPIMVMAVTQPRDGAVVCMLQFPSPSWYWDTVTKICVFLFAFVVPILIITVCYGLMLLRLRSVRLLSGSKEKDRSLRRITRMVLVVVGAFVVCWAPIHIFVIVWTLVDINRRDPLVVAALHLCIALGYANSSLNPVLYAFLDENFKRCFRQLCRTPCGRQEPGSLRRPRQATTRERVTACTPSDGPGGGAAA"},
  "source": "ChEMBL document CHEMBL1152082",
  "about": "“Topographical requirements for delta opioid ligands: The synthesis and biological properties of a cyclic analogue of deltorphin I” (Bioorg Med Chem Lett, 1992)",
  "target": "Delta-type opioid receptor (Mus musculus, UniProt P32300)",
  "assay": "Inhibitory activity against Mouse vas deferens smooth muscle",
  "assay_type": "functional, tissue-based, Muscle tissue",
  "note": "pIC50: −log10 of the molar value.",
  "data": [
    {"molecule": "CC(NC(=O)[C@@H](N)Cc1ccc(O)cc1)C(=O)N[C@@H](Cc1ccccc1)C(=O)N[C@@H](CC(=O)O)C(=O)N[C@H](C(=O)N[C@H](C(=O)NCC(N)=O)C(C)C)C(C)C", "note": "(single isomer, unassigned) [DELTORPHIN C]", "values": [
      {"measurement": "pIC50", "value": 9.96}
    ]}
  ]
}
